Assay [1] addresses KRAS^G12D/cRAF (Homo sapiens, UniProt P01116, G12D). Kind of assay: KRAS G12D/cRAF binding test (Alphalisa). The note with it: read-out: KRAS G12D/CRAF Alphalisa IC50; His-tagged KRAS G12D + GMPPNP, GST-tagged cRAF; class symbols. On the procedure:
The compound was dissolved in 100% DMSO at a starting concentration of 5 mM and diluted in DMSO with a 3-fold serial dilution method for a total of 8 concentration points. 1 μL of the compound or DMSO at each concentration point was added into 99 μL of the experimental buffer to obtain 10× stock solution.
• 1) 4 μL of the working mixture solution of His-tagged KRAS^G12D and GMPPNP was added to the 384-well plate. • 2) The 10× compound stock solution or 1% DMSO was added to the 384-well plate. • 3) The plate was centrifuged at 1000 rpm for 1 minute. • 4) 4 μL of GST-tagged cRAF solution was added to the 384-well plate. • 5) The plate was centrifuged at 1000 rpm for 1 minute. • 6) The plate was incubated at room temperature for 15 minutes. • 7) 10 μL of detection working solution was added to the 384-well plate. • 8) The plate was centrifuged at 1000 rpm for 1 minute. • 9) The plate was incubated at room temperature for 60 minutes. • 10) The 384-well plate was placed into Envision and assay data was obtained.
The ratio for each compound concentration was calculated from the signal of the DMSO control group contained in each assay plate and the Alphalisa signal in each compound well. […] The endpoint value (IC50) of the reference compound was assessed in each experiment as a quality control measure. […]
In general terms: In Alpha technology, singlet oxygen from a donor bead excites a nearby acceptor bead.

Amino acid sequences for entries named in this document (tags omitted). Residues count along the entry.
UniProt P01116, 1-188 isoform 2 G12D: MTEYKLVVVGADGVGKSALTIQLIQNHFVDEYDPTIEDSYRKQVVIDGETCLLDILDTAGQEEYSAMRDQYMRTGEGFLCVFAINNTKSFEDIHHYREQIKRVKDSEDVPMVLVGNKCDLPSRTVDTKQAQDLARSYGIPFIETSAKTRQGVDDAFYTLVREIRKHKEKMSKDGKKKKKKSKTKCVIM

The subject of assay [2] is AGS cell. Put plainly: Anti-proliferative 2D CTG assay, AGS cells. The note with it: read-out: AGS cell IC50, incubated 3 days, class symbols. On the procedure: When the cell confluence was about 80%, the cells were isolated with 0.25% trypsin. Isolated cells were resuspended in 5 mL fresh cell culture medium and centrifuged for cell collection. Meanwhile, the number of cells was also calculated. The cells were then suspended in culture medium of medium concentration. The cells were placed into a 96-well plate with 1000 cells/well for AGS and 1000 cells/well for GP2D. The 96-well plate was placed in an incubator at 37° C. and incubated overnight.
1.2 Day 1 Compound Treatment From the 10 mM stock solution, with a ratio of 1:5, 10-point serial dilutions were performed. The 10× medium containing the compound was transferred into corresponding wells of the 96 wells. The final maximum compound concentration was […] and the final DMSO concentration was 0.1%. The 96-well plate was placed in a 37° C. incubator, the AGS cells were incubated for 3 days, and the GP2D cells were incubated for 4 days.
50 μL/well of detection reagent (CTG) was added to the AGS cells, and the signal was read in an Envision machine.
The percent inhibition (%) at each compound concentration was calculated from the signal in the HPE and ZPE control wells and the fluorescence signal in the individual compound wells included in each assay plate. […] The endpoint value (IC50) of the reference compound was assessed in each experiment as a quality control measure. […]

As for `[2H]C([2H])([2H])OC[C@@]12CC[C@@H](CN(c3nc(OC[C@@]45CCCN4C[C@H](F)C5)nc4c(F)c(-c5cc(O)cc6ccc(F)c(C#C)c56)ncc34)C1)N2`, the IC50 in assay [1] and in assay [2] was less than 50 nM each time.

Take `[2H]C([2H])([2H])OC[C@]12CC[C@H](CN(c3nc(OC[C@@]45CCCN4C[C@H](F)C5)nc4c(F)c(-c5cc(O)cc6ccc(F)c(C#C)c56)ncc34)C1)N2`: the values for the IC50 in assay [1] and in assay [2] were greater than 500 nM and 50 to 500 nM, respectively.

The values are drawn from US20260176262A1, “KRAS INHIBITORS, PREPARATION METHOD THEREFOR, AND PHARMACEUTICAL USE THEREOF” (ABBISKO THERAPEUTICS CO., LTD., priority 2021, published 2026).
